Laboratory results published in patent publication US4778784A, “Cyclic peptide and method of use for inducing an immunological response to hepatitis B virus” (Baylor College of Medicine, priority 1987, dated 1988).

Tested on: common anti-HBs idiotype (CId)-anti-idiotype reaction
Test: Inhibition of the common anti-HBs idiotype binding its anti-idiotype antiserum
Design: species or system human
Text: The second immunochemical tool used to determine the ability of peptide 1 to elicit protective antibody resided with the idiotypic specificity of the anti-HBs antibodies produced by HBV-infected humans. The basic concept of the idiotypic system is illustrated in FIG. 6. The region associated with the variable region (VL and VH) of the immunoglobulin (Ig) molecule and which contains the antigencombining site has been defined by Oudin (Reference 39) as the idiotype of that Ig molecule. An anti-idiotypereagent is produced by injection of a second species, such as rabbits, with specifically purified antibody, e.g., human anti-HBs. The resulting rabbit antiserum is extensively adsorbed with normal human Ig negative for anti-HBs reactivity. The antiidiotype antiserum (with regions) thus recognizes only that region of the IgG molecule (shown as ) which specifically reacts with HBsAg. […] Thus, it is possible that the CId associated with human anti-HBs antibodies may be blocked from reacting with a specific anti-Id reagent by prior incubation with either HBsAg or with peptide 1 if the peptide is antigenically related to HBsAg. […]

For Human serum albumin: control inhibitor, the “Percent Inhibition of the Common Anti-HBs Idiotype Binding Its Anti-Idiotype Antiserum” value (Concentration 5.0 μg) was 0% and the “Percent Inhibition of the Common Anti-HBs Idiotype Binding Its Anti-Idiotype Antiserum” value (Concentration 20.0 μg) was 0%.
